Laboratory results published in patent publication US12533378B2, “Treatment of adverse effects caused by atypical antipsychotics” (SHENZHEN PROFOUND VIEW PHARMACEUTICAL TECHNOLOGY CO., LTD., priority 2020, dated 2026).
Where “and” joins values, the source holds several entries; their conditions need not be identical. Equal values may be shown once. Read-outs that look alike come from different tables or passages of the source.

Columns and labels:
[1] = test system: female Sprague Dawley rats; details: olanzapine model control group, olanzapine 1 mg/kg tid oral + saline ip, 21 days; mean±SEM
[2] = test system: female Sprague Dawley rats; details: olanzapine model control group, 1 mg/kg tid oral, 21 days; mean±SEM
[3] = test system: female Sprague Dawley rats; details: olanzapine model control group

Cc1cc2c(s1)Nc1ccccc1N=C2N1CCN(C)CC1 [OLZ, 2-methyl-4-(4-methyl-1-piperazinyl)-10H-thieno[2,3-b][1,5]benzodiazepine]
Body weight, BWG (body weight gain) [1]: 50.46 ± 3.52 g | Body weight, FBW (final body weight) [1]: 298.33 ± 4.97 g | Liver weight [2]: 8.76 ± 0.28 g | Mesenteric fat weight [2]: 2.45 ± 0.11 g | Blood glucose level ([3]; 30 minutes after ip glucose 1 g/kg): 9.16 ± 0.48 mmol/L | Blood glucose level ([3]; 60 minutes after ip glucose 1 g/kg): 6.79 ± 0.32 mmol/L | Blood glucose level ([3]; 120 minutes after ip glucose 1 g/kg): 6.79 ± 0.32 mmol/L and 6.30 ± 0.33 mmol/L | Area under the blood glucose curve (AUG) [3]: 845.07 ± 37.88 mmol/min
